Earlier results as cited in patent publication US12178871B2 (priority 2018, dated 2024).

Test system: nucleases
Conditions: cited from earlier work

## polyinosinic-polycytidylic acid with poly-L-lysine and carboxymethyl cellulose
  resistance to hydrolysis by the nucleases relative to PIC: 5-10 times
